Counter-ions that a name gives are not always drawn.
Columns and labels:
[1] = Hygroscopicity analysis (DVS Hygroscopicity); conditions: 0~95% RH at 25°C
Experimental: The physical properties of the free base (Compound 1) obtained in Preparation Example and the tartrate salt obtained in Example 1 were measured as follows. • 1) Melting Point: Measured with MP70 available from Mettler Toledo. The sample was collected through a capillary, and then allowed to fall freely using a specified glass rod, and repeated several times to ensure that there was no empty space in the capillary tube. Then, the transmittance was measured starting from 168°C and increasing the temperature by 1°C per minute, and the melting point was confirmed. The measurement results are shown in Table 2 below. • 2) Thermogravimetric analysis: Measured using TGA2 available from Mettler Toledo. 50 mg of the sample was placed in an Al2O3 pan, and the temperature was increased from 30.0°C at a rate of 10.00°C per minute to confirm the weight change up to 600.0 °C. As a result of the measurement, three weight changes were confirmed at the midpoint of 50.4°C (dehydration), 206.7°C (endothermic), and 378.4°C (exothermic behavior), and specific thermogravimetric analysis results are shown in FIG. 4. • 3) Hygroscopicity analysis (DVS Hygroscopicity): Measured using DVS Adventure available from Surface Measurement Systems. The sample was exposed to 0~95% RH using DVS at 25°C to confirm the hygroscopicity. Depending on the degree of moisture adsorption, it was divided into Non-hygroscopic (0~0.12%)/Slightly Hygroscopic (0.2~2%)/Moderately Hygroscopic (2.0~15.0%)/Very Hygroscopic (>15.0%). The measurement results are shown in Table 2 below. • 4) Water Solubility: Measured by HPLC available from Waters. The sample was supersaturated with water at 23~26°C, stirred for at least 18 hours, and then allowed to stand for at least 18 hours. The supernatant extracted using a centrifuge was filtered through a 0.45 µm filter. The HPLC area of the filtrate was measured to confirm the solubility. The measurement results are shown in Table 2 below. • 5) Stability: The purity was measured after 2 weeks under the accelerated testing criteria of 40±2°C/75±5% relative humidity. About 1 mg of the tartaric acid salt solid obtained in Example 1 was dissolved in 1 ml of 100% methanol, and then 700 µl of acetonitrile was added to 300 µl of this solution, diluted, and the purity was measured by HPLC.

Water solubility by HPLC = conditions: water at 23~26°C, stirred at least 18 hours, allowed to stand at least 18 hours, 0.45 µm filtered
Experimental: (§1) The physical properties of the free base (Compound 1) obtained in Preparation Example and the tartrate salt obtained in Example 1 were measured as follows. • 1) Melting Point: Measured with MP70 available from Mettler Toledo. The sample was collected through a capillary, and then allowed to fall freely using a specified glass rod, and repeated several times to ensure that there was no empty space in the capillary tube. Then, the transmittance was measured starting from 168°C and increasing the temperature by 1°C per minute, and the melting point was confirmed. The measurement results are shown in Table 2 below. • 2) Thermogravimetric analysis: Measured using TGA2 available from Mettler Toledo. […] As a result of the measurement, three weight changes were confirmed at the midpoint of 50.4°C (dehydration), 206.7°C (endothermic), and 378.4°C (exothermic behavior), and specific thermogravimetric analysis results are shown in FIG. 4. • 3) Hygroscopicity analysis (DVS Hygroscopicity): Measured using DVS Adventure available from Surface Measurement Systems. […] The measurement results are shown in Table 2 below. • 4) Water Solubility: Measured by HPLC available from Waters. […] The HPLC area of the filtrate was measured to confirm the solubility. […]

[2] = Stability under accelerated testing criteria (HPLC purity); conditions: purity by HPLC after 2 weeks at 40±2°C/75±5% relative humidity
Experimental: as §1

[3] = Pharmacokinetic evaluation (dog PK), single oral dose; conditions: Beagle dog, fasted; for Area under the blood concentration curve AUClast: 24-hour sampling
Experimental: 6) Pharmacokinetic evaluation (dog PK): The free base and tartrate salt prepared in Preparation Example were orally administered in a single dose to beagle dogs as experimental animals, and blood pharmacokinetic evaluation was carried out.
Three males (1.8 years old ~ 2.8 years old, KPC) were used for each dose. Each individual used a healthy animal suitable for the experiment after a 1-week quarantine and acclimatization period. After fasting, the drug was administered, and the first blood collection was performed immediately before administration, and a total of 10 blood collections were performed over a 24-hour period. The collected blood was centrifuged, and dispensed into plasma supernatants, after which the peak area ratio of the test substance to the peak area of the internal standard substance was extrapolated to the calibration curve to calculate the blood concentration.

[4] = class by degree of moisture adsorption
[5] = single oral dose 50 mg/kg, 50 mg/kg
[6] = single oral dose 150 mg/kg, listed as Free base, 150 mg/kg
[7] = single oral dose 150 mg/kg, listed as free base, 150 mg/kg
[8] = single oral dose 100 mg/kg, listed as Tartrate salt, 100 mg/kg
[9] = single oral dose 100 mg/kg, listed as tartrate salt, 100 mg/kg

Structure (SMILES) | Hygroscopicity [1, 4] | Hygroscopicity ([1]; degree of moisture adsorption) | Water solubility (Water solubility by HPLC) | Stability [2] | Area under the blood concentration curve AUClast [3, 5] | Maximum blood concentration Cmax [3, 5] | Area under the blood concentration curve AUClast [3, 6] | Area under the blood concentration curve AUClast [3, 7] | Maximum blood concentration Cmax [3, 6] | Maximum blood concentration Cmax [3, 7] | Area under the blood concentration curve AUClast [3, 8] | Area under the blood concentration curve AUClast [3, 9] | Maximum blood concentration Cmax [3, 8] | Maximum blood concentration Cmax [3, 9]
C=CC(=O)N1CC[C@@H](F)[C@@H](Oc2nc(Nc3cnn(CC)c3)nc3[nH]ccc23)C1 [Free base of Preparation Example] | Moderately Hygroscopic (Moderately Hygroscopic (2.0~15.0%)) | 6% | 568 µg/mL | 94.87% (2 weeks) | 9,377 ± 8,852 ng·h/mL | 1,740 ± 806 ng/mL | 5,370 ± 4,287 ng·h/mL | 5,370 ng·h/mL | 1,197 ± 728 ng/mL | 1,197 ng/mL |  |  |  | 
C=CC(=O)N1CC[C@@H](F)[C@@H](Oc2nc(Nc3cnn(CC)c3)nc3[nH]ccc23)C1 [Tartrate salt of Example] | Moderately Hygroscopic (Moderately Hygroscopic (2.0~15.0%)) | 3% |  | 99.26% (2 weeks) | 11,707 ± 5,687 ng·h/mL | 3,534 ± 1,201 ng/mL |  |  |  |  | 34,518 ± 934 ng·h/mL | 34,518 ng·h/mL | 6,423 ± 1,792 ng/mL | 6,423 ng/mL

From patent publication EP4821933A1, “TARTRATE SALT OF 1-((3S,4R)-3-((2-((1-ETHYL-1H-PYRAZOL-4-YL)AMINO)-7H-PYRROLO[2,3-D]PYRIMIDIN-4-YL)OXY)-4-FLUOROPIPERIDIN-1-YL)PROP-2-EN-1-ONE, CRYSTALLINE FORM THEREOF, AND METHOD FOR PREPARING SAME” (dated 2026)
